# Measurements from patent US8399480B2, “Hydroxymethyl pyrrolidines as beta 3 adrenergic receptor agonists” (Merck Sharp & Dohme Corp., priority 2008, dated 2013).
# The chains behind the UniProt entries cited, without tags or fusion partners.
# UniProt P13945, whole entry: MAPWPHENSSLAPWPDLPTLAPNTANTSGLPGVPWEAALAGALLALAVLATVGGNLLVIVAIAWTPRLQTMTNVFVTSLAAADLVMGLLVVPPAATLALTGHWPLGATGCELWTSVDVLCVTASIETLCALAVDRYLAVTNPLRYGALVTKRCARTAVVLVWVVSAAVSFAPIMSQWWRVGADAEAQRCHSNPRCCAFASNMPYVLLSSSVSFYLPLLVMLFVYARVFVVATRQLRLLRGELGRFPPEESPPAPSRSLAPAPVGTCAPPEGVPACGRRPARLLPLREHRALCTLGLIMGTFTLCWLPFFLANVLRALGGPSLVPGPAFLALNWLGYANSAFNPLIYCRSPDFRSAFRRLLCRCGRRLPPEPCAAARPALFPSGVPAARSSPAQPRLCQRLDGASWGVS
# Molecular target: human β3 adrenergic receptor (Homo sapiens, UniProt P13945)
# Experiment: Functional assay: cAMP production (LANCE TR-FRET) in CHO cells stably transfected with cloned β3 adrenergic receptor
# Type: cell-based
# Settings: read-out: Human β3 Functional; Table 5
row,Compound,EC50 [nM]
1,"CC(C(=O)Nc1ccc(C[C@@H]2CC[C@H]([C@H](O)c3ccccc3)N2)cc1)n1cnccc1=O (single isomer, unassigned)",1 to 10
2,"Cc1nnc(C(C)C(=O)Nc2ccc(C[C@@H]3CC[C@H]([C@H](O)c4ccccc4)N3)cc2)[nH]1 (single isomer, unassigned)",1 to 10
3,"CC(C(=O)Nc1ccc(C[C@@H]2CC[C@H]([C@H](O)c3ccccc3)N2)cc1)c1nnn(C)n1 (single isomer, unassigned) [175]",1 to 10

# The next lines start with the values.
row,EC50 [nM],Compound
1,11 to 100,O=C(Nc1ccc(C[C@@H]2CC[C@H]([C@H](O)c3ccccc3)N2)cc1)[C@H]1CCc2scnc21
2,1 to 10,"Nc1nc2c(s1)CCC2C(=O)Nc1ccc(C[C@@H]2CC[C@H]([C@H](O)c3ccccc3)N2)cc1 (single isomer, unassigned) [114]"
3,< 1,"O=C(Nc1ccc(C[C@@H]2CC[C@H]([C@H](O)c3ccccc3)N2)cc1)C1CCc2scnc21 (single isomer, unassigned)"
4,101 to 1000,O=C(Nc1ccc(C[C@@H]2CC[C@H]([C@H](O)c3ccccc3)N2)cc1)C1Cc2ccccc2C1

# Same assay, conditions: read-out: Human β3 Functional; Table 6
row,EC50 [nM],Compound
1,11 to 100,"Nc1nc2c(s1)CCC2C(=O)Nc1ccc(C[C@H]2CC[C@H]([C@H](O)c3ccccc3)N2)cc1 (single isomer, unassigned) [225]"
2,11 to 100,"Cc1nc2c(s1)CCC2C(=O)Nc1ccc(C[C@H]2CC[C@H]([C@H](O)c3ccccc3)N2)cc1 (single isomer, unassigned) [229]"
3,101 to 1000,"Nc1nc2c(s1)CCC2C(=O)Nc1ccc(C[C@H]2CC[C@H]([C@H](O)c3ccccc3)N2)cc1 (single isomer, unassigned) [226]"
4,101 to 1000,"Cc1nc2c(s1)CCC2C(=O)Nc1ccc(C[C@H]2CC[C@H]([C@H](O)c3ccccc3)N2)cc1 (single isomer, unassigned) [230]"

# Same assay, conditions: read-out: Human β3 Functional; Table 7; β3AR-cAMP
row,EC50 [nM],Compound
1,11 to 100,O=S(=O)(Nc1ccc(C[C@@H]2CC[C@H]([C@H](O)c3ccccc3)N2)cc1)c1cc(C(F)(F)F)cc(C(F)(F)F)c1

# Same assay, conditions: read-out: Human β Binding; Table 4; human β3 functional activity
row,EC50 [nM],Compound
1,1 to 10,O=C(Cn1ccccc1=O)Nc1ccc(C[C@@H]2CC[C@H]([C@H](O)c3ccccc3)N2)cc1
2,1 to 10,Cc1cnn(CC(=O)Nc2ccc(C[C@@H]3CC[C@H]([C@H](O)c4ccccc4)N3)cc2)c(=O)c1
3,101 to 1000,O=C(Cn1c(=O)ccc2ncccc21)Nc1ccc(C[C@@H]2CC[C@H]([C@H](O)c3ccccc3)N2)cc1
4,1 to 10,O=C(Cn1cnccc1=O)Nc1ccc(C[C@@H]2CC[C@H]([C@H](O)c3ccccc3)N2)cc1
5,11 to 100,O=C(CC1C=NC=NC1=O)Nc1ccc(C[C@@H]2CC[C@H]([C@H](O)c3ccccc3)N2)cc1 (some centres unmarked)
6,1 to 10,O=C(Cn1c(=O)cnc2ccccc21)Nc1ccc(C[C@@H]2CC[C@H]([C@H](O)c3ccccc3)N2)cc1
7,101 to 1000,O=C(Nc1ccc(C[C@@H]2CC[C@H]([C@H](O)c3ccccc3)N2)cc1)C1CCCN1c1ccc(Br)cc1 (some centres unmarked)

# Same assay, conditions: read-out: Human β^3 Functional; Table 9; tested form: TFA
row,Compound,EC50 [nM]
1,C[C@@H](C(=O)Nc1ccc(C[C@@H]2CC[C@H]([C@H](O)c3ccccc3)N2)cc1)N(C)C(=O)c1ccccc1F,11 to 100
